## Ab-14 heavy chain CDR variants: yeast mating affinities

Data: MIT Lincoln Laboratory AlphaSeq set, Li et al. 2023, doi:10.1038/s41467-023-39022-2, as distributed in FLAb.

All variants were tested on one target, the spike HR2 peptide PDVDLGDISGINAS (SARS-CoV-2).

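The parent was found by panning a naive human phage display library on the peptide. The variants were designed computationally from a first round of random CDR variants and then made and measured. Group labels follow the data file (Ctrl: baseline library sampled from a position-specific scoring matrix, with some repeated check sequences; GPLM: also part of the Gaussian process libraries; HC: hill climbing; Gen: genetic algorithm; a sequence that several methods proposed may carry one label only). Affinity was read by AlphaSeq, a pooled yeast mating assay with surface-displayed partners. Mating (16 h, 30 °C) was followed by selection of diploids and sequencing of their barcodes. A regression on co-assayed BCL2-family reference pairs converts the normalised counts of each replicate to an apparent Kd. The assay was run in six technical replicates.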

Each scFv is VH, a (GGGGS)3 linker, VL, as in the parent Ab-14, and differs from it in the CDRs of the heavy chain only.
VH: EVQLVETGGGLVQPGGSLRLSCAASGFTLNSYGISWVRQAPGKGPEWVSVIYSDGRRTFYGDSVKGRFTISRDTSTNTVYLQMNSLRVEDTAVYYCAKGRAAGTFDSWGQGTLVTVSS
VL: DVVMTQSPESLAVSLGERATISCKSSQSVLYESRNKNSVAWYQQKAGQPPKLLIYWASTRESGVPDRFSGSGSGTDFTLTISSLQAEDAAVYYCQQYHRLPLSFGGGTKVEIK

Changes read parent residue, position, new residue, counted from the first residue of the VH shown.
Scale: log10 of Kd in nM, estimated from mating counts; low values are strong binders.
Replicates are averaged; those with no signal do not enter the mean.
"nd" means that the variant was in the library but no mating with the target was seen in that replicate; the authors take this as a sign of poor binding, and no number exists.
The authors' rule: three or more of the six replicates give a measured affinity, fewer mean a poor binder.

For S31T/G61T/F105A/D106M [Ctrl], the assay gave nd, nd, nd, nd, nd, nd (controls 0 of 18).
For N30R/V64F/A101N [Ctrl], the assay gave nd, 2.36, nd, nd, 2.80, 1.85 (mean 2.33; controls 2 of 18).
For A101F/T104L/S107L [Ctrl], the assay gave nd, nd, nd, nd, nd, nd (controls 1 of 18).
For N30E/Y32F/R56V/S63N/D106P [Ctrl], the assay gave nd, nd, nd, nd, nd, nd (controls 0 of 18).
For L29R/R100E [Ctrl], the assay gave nd, nd, nd, nd, nd, nd (controls 0 of 18).
For T58V/G61S/D62N [Ctrl], the assay gave nd, 1.20, nd, 1.79, 1.82, nd (mean 1.60; controls 0 of 18).
For T28E/D106I [Ctrl], the assay gave nd, 0.60, nd, nd, nd, nd (controls 0 of 18).
For T28S/S31N/R100K/F105G/D106P [Ctrl], the assay gave nd, nd, nd, nd, nd, nd (controls 0 of 18).
For T28D/L29V/F59A/G61S [Ctrl], the assay gave 1.41, 0.70, 0.37, 1.33, 1.71, 0.88 (mean 1.07; controls 0 of 18).
For T28D/G61K/D62G/A102H [Ctrl], the assay gave nd, nd, nd, nd, nd, nd (controls 0 of 18).
For D62P/G99T/A102E [Ctrl], the assay gave nd, nd, nd, nd, nd, nd (controls 0 of 18).
For T28N/S31D/S63D/A101Y/G103H [Ctrl], the assay gave nd, 1.90, nd, 1.95, 4.52, 2.96 (mean 2.83; controls 1 of 18).
For N30T/G99E/R100Y/D106C [Ctrl], the assay gave nd, nd, nd, nd, nd, nd (controls 0 of 18).
For S35H/F59G/G61Q/R100F [Ctrl], the assay gave nd, nd, nd, nd, nd, nd (controls 0 of 18).
For T28K/N30A/G61Q/G99E/A101V [Ctrl], the assay gave nd, nd, nd, nd, nd, 1.95 (controls 0 of 18).
For S31Q/R100Y [Ctrl], the assay gave nd, nd, nd, 2.09, nd, nd (controls 1 of 18).
For T28H/N30D/G61H/A102K/F105N/D106E [Ctrl], the assay gave nd, nd, nd, nd, 1.91, nd (controls 0 of 18).
For T28V/S31Q/S107N [Ctrl], the assay gave nd, nd, nd, nd, nd, nd (controls 0 of 18).
For G99C/R100L/A101N [Ctrl], the assay gave nd, nd, nd, nd, nd, nd (controls 0 of 18).
For S63A/R100H/A101Q/T104Q [Ctrl], the assay gave nd, nd, nd, nd, 3.84, nd (controls 1 of 18).
For N30R/R56L/A101V [Ctrl], the assay gave nd, nd, nd, nd, nd, nd (controls 0 of 18).
For R100P [Ctrl], the assay gave nd, nd, nd, nd, nd, nd (controls 0 of 18).
For F59H/G103D [Ctrl], the assay gave nd, nd, nd, nd, nd, nd (controls 0 of 18).
For T28D/S31E/F59A [Ctrl], the assay gave -0.12, -0.26, -0.20, -0.51, -0.45, -0.32 (mean -0.31; controls 0 of 18).
For R100T/A101V/T104E [Ctrl], the assay gave nd, nd, 2.81, nd, nd, nd (controls 2 of 18).
For S31D/K65A [Ctrl], the assay gave 0.72, 0.72, 0.84, 1.35, 1.30, 1.04 (mean 1.00; controls 0 of 18).
For G99L [Ctrl], the assay gave nd, 1.61, nd, nd, nd, nd (controls 0 of 18).
For T28W/A101E [Ctrl], the assay gave nd, 1.17, 3.07, nd, nd, nd (mean 2.12; controls 0 of 18).
For S31D/S63D/G99T [Ctrl], the assay gave nd, nd, nd, nd, nd, nd (controls 0 of 18).
For T28H/L29V/A101E/D106N [Ctrl], the assay gave nd, nd, nd, nd, nd, nd (controls 0 of 18).
For S63K/K65A [Ctrl], the assay gave nd, nd, nd, nd, nd, nd (controls 0 of 18).
For T28E/S31E/R100Y [Ctrl], the assay gave nd, 1.05, 0.63, 1.73, 0.67, 1.41 (mean 1.10; controls 0 of 18).
For T28P/N30E/G61A/D106H/S107Q [Ctrl], the assay gave nd, 2.36, nd, nd, nd, nd (controls 1 of 18).
For T28D/G99R [Ctrl], the assay gave nd, nd, nd, nd, nd, nd (controls 0 of 18).
For T28S/R100S/A102C [Ctrl], the assay gave 0.86, 0.87, 0.21, 1.11, 0.85, 0.89 (mean 0.80; controls 0 of 18).
For S31E/G61S [Ctrl+GPLM_Gen], the assay gave -0.27, 0.51, 0.21, -0.20, 0.53, 0.20; -0.19, -0.02, 0.11, -0.30, -0.10, -0.18 (mean 0.02; controls 1 of 36).
For S31D/D106H [Ctrl], the assay gave nd, 2.32, 1.49, 2.22, 1.78, 1.33 (mean 1.83; controls 0 of 18).
For S31M/R56L [Ctrl], the assay gave 1.68, 1.80, 1.77, 2.05, 1.44, 2.42 (mean 1.86; controls 0 of 18).
For S31D [Ctrl+GPLM_HC], the assay gave nd, nd, nd, nd, nd, 2.07; -0.23, -0.37, 1.30, -0.28, -0.57, 0.45 (mean 0.34; controls 1 of 36).
For T28G/S63E/T104H [Ctrl], the assay gave nd, 1.87, nd, nd, nd, nd (controls 0 of 18).
For T28S/L29V [Ctrl], the assay gave 1.40, 2.27, 0.82, 1.50, 1.46, 2.45 (mean 1.65; controls 1 of 18).
For T28C/S31E/A101I/D106S/S107Q [Ctrl], the assay gave nd, nd, nd, nd, nd, nd (controls 0 of 18).
For G99W/R100W/A101E/F105S [Ctrl], the assay gave nd, nd, nd, nd, nd, nd (controls 0 of 18).
For T58V/R100P [Ctrl], the assay gave nd, nd, nd, nd, 2.01, nd (controls 0 of 18).
For F27V/T28D [Ctrl], the assay gave 0.82, 0.17, 0.22, 0.56, 0.45, 0.71 (mean 0.49; controls 1 of 18).
For S31Q/S53A/R57K/G61S/K65V/T104G [Ctrl], the assay gave nd, nd, nd, nd, 2.68, nd (controls 0 of 18).
For S31E/F59S/G61D [Ctrl], the assay gave 1.13, 1.46, 1.81, 1.56, 1.74, 1.60 (mean 1.55; controls 0 of 18).
For T28D/F59A/T104M/S107Q [Ctrl], the assay gave nd, nd, nd, nd, nd, nd (controls 0 of 18).
For T28N/S63D/G103L [Ctrl], the assay gave nd, nd, nd, nd, nd, nd (controls 0 of 18).
For N30D/G61A/A101G [Ctrl], the assay gave nd, 2.17, nd, 1.95, nd, nd (mean 2.06; controls 0 of 18).
For L29V/A102T [Ctrl], the assay gave nd, nd, nd, nd, nd, nd; nd, nd, nd, nd, nd, nd; nd, nd, nd, nd, nd, nd; nd, nd, nd, nd, nd, nd; nd, nd, nd, nd, nd, nd (controls 1 of 90).
For F27E/T28G/R56Y/A102R/F105N [Ctrl], the assay gave nd, nd, nd, nd, nd, nd (controls 0 of 18).

The opening 3 entries, copied out:

{"changes": "S31T/G61T/F105A/D106M", "group": "Ctrl", "log10 Kd, replicates": "nd, nd, nd, nd, nd, nd", "mean, log10 nM": "nd", "empty controls": "0 of 18"}
{"changes": "N30R/V64F/A101N", "group": "Ctrl", "log10 Kd, replicates": "nd, 2.36, nd, nd, 2.80, 1.85", "mean, log10 nM": "2.33", "empty controls": "2 of 18"}
{"changes": "A101F/T104L/S107L", "group": "Ctrl", "log10 Kd, replicates": "nd, nd, nd, nd, nd, nd", "mean, log10 nM": "nd", "empty controls": "1 of 18"}

The parent sequence was in this pool as ten entries: three were never detected, three once, and four in most replicates, with averages from 0.34 to 2.37.
Three control strains display no target. For all heavy chain designs, 1% of the pairings with them gave a signal, with a median of 2.08 and one signal in twenty below 0.84, so weak values seen in few replicates may be background. For each scFv, signals with the empty controls are counted beside the result.
Some sequences occur more than once in the pool; their replicates are listed entry by entry, parted by semicolons.
The range of this assay differs from that of the first round, and the authors advise against merging the two.